Values joined by “and” are separate entries in the source; they are usually repeats but may differ in a detail not shown here. Equal entries are not always repeated. The list shows a part of the results, in another mix than the full data. Results filed as inconclusive are left out. Active and inactive are the calls of the source. Calls follow the shape of the dose curve; as a rule, active = well fitted activation curve with a large enough effect; inconclusive = small, poorly fitted or top-dose-only effect; inactive = no such curve, though single readings can be large or run the other way.
Target: Rap guanine nucleotide exchange factor 3 (Homo sapiens) (UniProt O95398)
Assay: Validation qHTS for agonist of cAMP-regulated guanine nucleotide exchange factor 3 (EPAC1); also: nearly all actives have a fitted effect of over 70% in size
Details: EPAC1 Rap1b BODIPY-GDP exchange, fluorescence; active compounds read high; percent of cAMP control response
Description: Assay Provider (PI): Xiaodong Cheng Ph.D.
The University of Texas Medical Branch, […], TX
In multi-cellular eukaryotic organisms, the effects of cAMP are transduced by two ubiquitously-expressed intracellular cAMP receptors, the classic protein kinase A/cAMP-dependent protein kinase (PKA/cAPK) and the more recently discovered exchange protein directly activated by cAMP/cAMP-regulated guanine nucleotide exchange factor (EPAC/cAMP-GEF). Both PKA and EPAC are ubiquitously expressed in all tissues, and an increase in intracellular cAMP levels will lead to the activation of both PKA and EPAC. Therefore, careful dissections of the individual role and relative contribution of EPAC and PKA within the overall cAMP signaling in various model systems are critical for further elucidating the mechanism of cAMP signaling. To date no EPAC-specific antagonists and agonist, as well as isoform-specific agonists have been reported, and developing EPAC-specific pharmacological probes to determine the physiological functions that EPAC play in the overall cAMP-mediated signaling remains a major challenge within the research field. Furthermore, identified regulators of EPAC may lead to new mechanism-based therapeutic strategies specifically targeting the EPAC / cAMP-signaling components as EPAC has been implicated to play important roles in major human pathological conditions such as diabetes, heart disease, and cancer.
This qHTS will be used to screen the Molecular Libraries Small Molecule Repository (MLSMR) as a concentration-titration series using the NCGC unique quantitative screening (qHTS) platform to find activators for EPAC1. In addition, this assay will also be used as a counterscreen for the EPAC2 qHTS. This fluorescent based assay is developed and validated for EPAC1 that measures exchange using EPAC effector Rap1 complex with BODIPY-GDP, a GDP analog with a tethered fluorophores. Activators are identified by monitoring the change in fluorescence signal as the exchanged free BODIPY-GDP has a reduced fluorescence compared to Rap1-bound BODIPY-GDP. Increase in signal (activation) is the desired outcome for the EPAC1 agonist while no activity in this assay is desired for the EPAC2 agonist counterscreen.
[1] de Rooij, J., Zwartkruis, F. J., Verheijen, M. H., Cool, R. H., Nijman, S. M., Wittinghofer, A., and Bos, J.L. (1998) Nature 396, 474-477.
Briefly, three uL of reagents (100 nM EPAC1, 250 nM RAP1B-BODIPY-GDP, 50 uM GDP) were dispensed into a 1536-well Greiner black solid-bottom medium binding assay plate. Controls and test compounds (23 nL) were transferred to the plate via a Kalypsys pin tool equipped with a 1536-pin array. The plates were centrifuged at 1,000 rpm for 15 seconds followed by 5 minute incubation at room temperature. The assay plates were read at 5 minute intervals for 30 minutes in the ViewLux plate reader using 480nm excitation and 540nm emission filters. The results were normalized to the agonist positive control of 6.5 mM cAMP.
% is scaled to controls: 0 for no effect and ±100 for the full control effect.

The chains behind the UniProt entries cited, without tags or fusion partners.
UniProt O95398, whole entry: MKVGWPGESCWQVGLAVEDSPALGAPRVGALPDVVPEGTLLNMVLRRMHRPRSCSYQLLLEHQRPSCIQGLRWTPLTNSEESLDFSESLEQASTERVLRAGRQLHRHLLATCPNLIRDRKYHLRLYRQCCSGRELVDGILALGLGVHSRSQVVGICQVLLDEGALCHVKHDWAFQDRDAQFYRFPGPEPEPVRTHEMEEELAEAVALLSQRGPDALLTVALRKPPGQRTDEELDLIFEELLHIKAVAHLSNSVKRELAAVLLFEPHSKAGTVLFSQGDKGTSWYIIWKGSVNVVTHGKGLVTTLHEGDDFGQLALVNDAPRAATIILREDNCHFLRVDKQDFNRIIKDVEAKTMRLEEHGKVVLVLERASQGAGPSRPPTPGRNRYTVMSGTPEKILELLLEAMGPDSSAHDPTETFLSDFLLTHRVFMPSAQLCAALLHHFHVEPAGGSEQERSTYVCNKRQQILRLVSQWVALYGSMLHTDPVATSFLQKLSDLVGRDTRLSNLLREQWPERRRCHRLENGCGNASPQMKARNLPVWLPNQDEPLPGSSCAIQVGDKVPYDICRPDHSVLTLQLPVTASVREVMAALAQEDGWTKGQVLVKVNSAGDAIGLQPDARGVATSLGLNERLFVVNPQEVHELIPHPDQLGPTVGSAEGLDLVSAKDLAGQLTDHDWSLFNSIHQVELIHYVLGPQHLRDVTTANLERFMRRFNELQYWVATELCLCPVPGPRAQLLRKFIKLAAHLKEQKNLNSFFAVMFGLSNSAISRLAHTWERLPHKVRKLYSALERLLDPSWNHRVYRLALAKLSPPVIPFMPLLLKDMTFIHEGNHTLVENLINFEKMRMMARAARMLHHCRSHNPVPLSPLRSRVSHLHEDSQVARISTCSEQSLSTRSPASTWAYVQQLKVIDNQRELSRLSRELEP

Row | SMILES | max response
1 | CCOP(=O)(CC)Oc1ccc([N+](=O)[O-])cc1 (stereo not given) | inactive: -57.2%
2 | Cc1cccc([N+](=O)[O-])c1[N+](=O)[O-] | inactive: -18.4%
3 | CCN(CCCl)Cc1ccccc1C | inactive: -18.8%
4 | C/C1=C2N=C(/C=C3N=C(/C(C)=C4\[N-][C@@](C)([C@@H]5N=C1[C@](C)(CCC(=O)NC[C@@H](C)OP(=O)([O-])O[C@H]1[C@@H](O)[C@@H](n6cnc7cc(C)c(C)cc76)O[C@@H]1CO)[C@H]5CC(N)=O)[C@@](C)(CC(N)=O)[C@@H]4CCC(N)=O)[C@@](C)(CC(N)=O)[C@@H]\3CCC(N)=O)C(C)(C)[C@@H]/2CCC(N)=O.[C-]#N.[Co+3] | inactive: -6.29%
5 | CC(C)OP(=O)(F)OC(C)C | inactive: 0.025%
6 | O=[N+]([O-])[O-].[NH4+] | inactive: 17.3%
7 | CN(C)CCS | inactive: -15.3%
8 | CC(C)N(CCCl)C(C)C | inactive: 4.13%
9 | O=[N+]([O-])OCC(CO[N+](=O)[O-])(CO[N+](=O)[O-])CO[N+](=O)[O-] | inactive: -14.4%
10 | O=[N+]([O-])c1cccc([N+](=O)[O-])c1 | inactive: -20% and inactive: -25.3%

Reference: PubChem BioAssay AID1645883 (National Center for Advancing Translational Sciences (NCATS), 2021)
